Source: PubChem BioAssay (National Center for Advancing Translational Sciences (NCATS))
Sfp inh: inhibitors of Bacillus subtilis Sfp phosphopantetheinyl transferase | Q9F4F7 | Biochemical Sfp PPTase activity, qHTS | Potency, µM, inactives show max response, negative = inhibition, most hits filed as inhibitors | 310,000 tested, 3.5% active | AID 1490; active = well fitted inhibition curve with a large enough effect; inconclusive = small, poorly fitted or top-dose-only effect, or another doubt; inactive = no such curve, though single readings can be large or run the other way;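 note: the enzyme is Sfp with the accession as filed and its product quenches rhodamine fluorescence; potency is the fitted concentration of half-maximal effect; 0% = enzyme reaction without inhibitor and -100% = no enzyme wells; top concentration of the series not given in the record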
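Fluorescence-quenching assay: 15 nM Sfp-PPTase preincubated 15 min at room temperature with compound, then 5 uM rhodamine-CoA and 12.5 uM BHQ-2-labelled YbbR peptide added. Fluorescence (ex 525/em 598 nm) read at start and after 30 min; difference gives rate.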
LMNA splice mod: modulators of lamin A splicing; HeLa LMNA splicing GFP/RFP minigene ratio, 48 h; Potency, µM (top dose mostly 46.1 µM), for inactives: at the highest dose ratio change, negative = inhibition, actives largely listed as inhibitors; actives 0.01% (n = 200,000); AID 1487; active = well fitted inhibition curve with a large enough effect in the signal ratio, with a control signal flat, not every such curve was filed as active; inconclusive = small, poorly fitted or top-dose-only effect, or effect the other way, or a change in a side signal; the % refers to the signal ratio; also: potency is read from the fitted curve at half-maximal effect; % is scaled to controls: 0 for no effect and ±100 for the full control effect
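S3 HeLa stable clones carrying a lamin A-EGFP splicing minigene plus DsRed2 were seeded at 600 cells/well in Opti-MEM with 2% FBS, pin-dosed and incubated 48 h at 37°C. Acumen cytometry (488 nm) gave the GFP/RFP total-intensity ratio.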
JMJD2E inh: inhibitors of human JMJD2E histone demethylase; AID 2147; Potency, µM (titrated, usually from 57.1 µM), for inactives: at the top dose activity change, negative = inhibition, hits mostly inhibitors; B2RXH2; actives 1.6% (n = 230,000); JMJD2E catalytic domain, FDH-coupled NADH fluorescence (FDH is formaldehyde dehydrogenase);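 also: potency is read from the fitted curve at half-maximal effect; 0% = wells with enzyme and -100% = buffer wells without enzyme; nearly all actives have a fitted effect of over 50% in size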
G9a block: blocks human histone lysine methyltransferase G9a; G9a H3K9 monomethylation, AlphaScreen, 2 h; Potency, µM (doses to about 102 µM), inactives show at the highest dose activity, negative = inhibition, hits mostly inhibitors; actives 8.8% (n = 350,000); AID 504332; also: potency is read from the fitted curve at half-maximal effect; % is scaled to controls: 0 for no effect and ±100 for the full control effect; nearly all actives have a fitted effect of over 75% in size
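Quantitative HTS format: methyltransferase activity on a biotin-tagged H3K9 peptide is measured by AlphaScreen, using a rabbit anti-monomethyl-H3K9 antibody with streptavidin donor and anti-IgG acceptor beads. Final levels are 20 nM enzyme, 500 nM peptide, 20 uM SAM; 2 h RT.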
miR-21 reporter: miR-21 reporter, rising signal; HeLa miR-21 FLuc reporter, luciferase, 48 h; Potency, µM (doses to about 38.3 µM), for inactives: at the highest dose reporter change, positive = more light; 340,000 tested, under 10 active; AID 2288; active = well fitted rising curve with a large enough effect; inconclusive = small, poorly fitted or top-dose-only effect; inactive = no such curve, though single readings can be large or run the other way;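 further: % of control where 0% means no effect; miR-21 action dims this reporter so a rising signal means less miR-21 action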
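HeLa cells stably expressing CMV-driven firefly luciferase with a downstream miR-21 binding sequence, endogenously expressing miR-21, were treated with titrations (up to about 40uM final) for 48 hours at 37 degree Celsius. Luciferase luminescence was read after lysis.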
ALDH1A1 inh: ALDH1A1 (human) enzyme inhibition. actives 7.3% (n = 220,000). Potency, µM (series often up to 75.3 µM), without a hit: at the highest dose activity, negative = inhibition, usual class: inhibitors. Purified ALDH1A1, NADH fluorescence, propionaldehyde substrate; active = well fitted inhibition curve with a large enough effect, not every such curve was filed as active; inconclusive = small, poorly fitted or top-dose-only effect, or another doubt; inactive = no such curve, though single readings can be large or run the other way;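 also: potency is read from the fitted curve at half-maximal effect; plate controls were no enzyme wells and a reference inhibitor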
Starred values were filed as active, the others as inactive; u = inconclusive; x = no result given; [ ] = remark or other dose. Compounds with a hit are over-represented: about 13% of the library has one in this group of screens. Unless noted, calls follow the shape of the dose curve; as a rule, active = well fitted curve in the direction sought with a large enough effect; inconclusive = small, poorly fitted or top-dose-only effect, or another doubt; inactive = no such curve, though single readings can be large; an effect the other way counts as inactive or inconclusive.

Results follow in this order: LMNA splice mod | ALDH1A1 inh | Sfp inh | miR-21 reporter | G9a block | JMJD2E inh
O=C1C2C3C=CC(C3)C2C(=O)N1/N=C/c1cc(Br)cc([N+](=O)[O-])c1O (stereo not given)
    u | u | 20.3% | -7.3% | u | 4.5%
N#Cc1ccc(CN2CCC3(CC2)CCN(C(=O)c2ccncc2)CC3)cc1
    x | -1.1% | 40.1% | x | -3.1%[12.7 µM] | x
COc1ccc(Cn2ccnc2)cc1Br
    u | u | u | -16.6% | u | -4.8%
COc1ccc(NCc2ccc(OC)c(Cn3ccnc3)c2)c(OC)c1
    x | x | 4.0% | -13.4% | 11.2µM* | x
CC1CC(C)CN(CCCNC(=O)c2ccc(N3CCCC3=O)cc2)C1 (stereo not given)
    x | x | 5.4% | -2.2% | 7.94µM* | x
CN(CCCNC(=O)c1cccc(N2CCCC2=O)c1)c1ccccc1
    -2.6% | u | -6.1% | -9.6% | 8.91µM* | -9.2%
CCCCN(C)CCCNC(=O)c1cccc(N2CCCC2=O)c1
    0.0% | 1.3% | 0.4% | -0.9% | -3.7% | 6.5%
COC(=O)c1cccc(N2CCCC2=O)c1
    x | x | -6.2% | -0.5% | 13.2% | -5.6%
O=C(O)c1cccc(N2CCCC2=O)c1
    9.1% | u | -6.2% | -6.6% | 50.1µM* | -4.0%
O=C(N/N=C/c1cc(Br)ccc1O)c1cccc(N2CCCC2=O)c1
    u | 0.1% | 3.7% | 10.9% | 11.4%[59 µM] | 28.2µM*

Going on with the list.
Results follow in this order: LMNA splice mod | ALDH1A1 inh | Sfp inh | miR-21 reporter | G9a block | JMJD2E inh
S=c1nc(-c2nc(=S)[nH]c3c2CCCCCCCCCC3)c2c([nH]1)CCCCCCCCCC2
    x | -0.3%[13.5 µM] | x | x | x | x
Cc1ccc(NC(=O)C(=O)NCC(c2cccnc2)N2CCN(Cc3ccccc3)CC2)cc1C (stereo not given)
    3.0%[46 µM] | x | x | -31.8% | -2.7%[59 µM] | x
C[C@H]1CC[C@H]2C(=O)N3[C@H](c4cccc(N5CCCC5=O)c4)[C@@H](C)CC[C@H]3C(=O)N2[C@@H]1c1cccc(N2CCCC2=O)c1
    -8.3% | 3.4% | -17.4% | 3.0% | 50.1µM* | -2.1%
CS(=O)(=O)N(CC(=O)NCCSCc1ccccc1)c1ccccc1F
    x | x | 18.2% | 1.5% | 9.2% | x
O=C(COC(=O)c1cc(Cl)ccc1O)Nc1ccc2c(c1)OCCO2
    x | x | x | x | 6.4%[12.7 µM] | x
CCc1nnc(NC(=O)CN2CCN(c3nc(-c4ccccc4)cs3)CC2)s1
    u | -2.8% | 2.2% | -0.6% | 50.1µM* | -0.3%
CCc1nnc(NC(=O)CN2CCN(CC)CC2)s1
    x | x | 7.1% | 1.1% | 79.4µM* | x
O=c1c2ccccc2sc2nc(C3CCCCC3)n(Cc3ccco3)c(=O)c12
    u | 1.41µM* | -2.1% | -3.7% | u | -2.8%
CCc1nc2sc3ccccc3c(=O)c2c(=O)n1Cc1ccco1
    -1.6% | u | 39.8µM* | -9.3% | -18.6%[59 µM] | 2.6%
Cc1cc(C)cc(NC(=O)N2CCC(N3CCN(Cc4ccccc4)C(=O)C3=O)CC2)c1
    1.2%[46 µM] | x | x | -1.9% | -3.3%[59 µM] | x

Additional compounds follow.
Results follow in this order: LMNA splice mod | ALDH1A1 inh | Sfp inh | miR-21 reporter | G9a block | JMJD2E inh
CCN1CC(CN(C)Cc2nc(-c3ccco3)oc2C)CC1=O (stereo not given)
    u | u | 4.1% | 1.0% | 79.4µM* | -10.8%
CCN1CC(CN(C)Cc2nc(-c3ccc(C(F)(F)F)cc3)oc2C)CC1=O (stereo not given)
    x | 3.2% | -6.0% | -2.3% | x | u
CCOc1ccc(NC(=O)Cn2cc(S(=O)(=O)c3ccc(C)cc3)c(=O)c3cc(F)ccc32)cc1
    x | x | x | -6.3% | -3.6%[59 µM] | x
Cc1ccc2oc(=O)c3cnn(CC(=O)N4CCN(c5ccc(F)cc5)CC4)c3c2c1
    x | x | x | 2.1% | -1.3%[59 µM] | x
CCn1c(=O)c2cc(C(=O)NCc3ccc(F)cc3Cl)sc2c2ccccc21
    x | x | x | 0.6% | -11.9%[59 µM] | x
O=C1CC(N2CCN(c3ccccc3Cl)CC2)C(=O)N1c1cccc(F)c1 (stereo not given)
    -7.5% | 11.2µM* | 2.2% | -6.9% | u | 6.8%
COc1ccccc1N1CCN(C2CC(=O)N(c3ccc(Cl)cc3)C2=O)CC1 (stereo not given)
    x | x | 7.4% | -6.6% | 20.8%[0.501 µM] | x
COc1cccc(N2CCN(C3CC(=O)N(c4ccc(Cl)c(Cl)c4)C3=O)CC2)c1 (stereo not given)
    -9.0% | u | -7.5% | -23.0% | u | 1.6%
O=C1CC(N2CCN(c3ccccc3Cl)CC2)C(=O)N1c1ccc(F)cc1 (stereo not given)
    5.5% | -5.6% | -2.9% | -5.4% | 50.1µM* | 4.3%
CCOc1ccccc1NC(=O)CSc1nnc(CNC(=O)c2cccs2)o1
    x | x | 1.5% | 1.0% | -10.4%[0.501 µM] | x

3 successive compounds from above:
Results follow in this order: LMNA splice mod | ALDH1A1 inh | Sfp inh | miR-21 reporter | G9a block | JMJD2E inh
CCn1c(=O)c2cc(C(=O)NCc3ccc(F)cc3Cl)sc2c2ccccc21
    x | x | x | 0.6% | -11.9%[59 µM] | x
O=C1CC(N2CCN(c3ccccc3Cl)CC2)C(=O)N1c1cccc(F)c1 (stereo not given)
    -7.5% | 11.2µM* | 2.2% | -6.9% | u | 6.8%
COc1ccccc1N1CCN(C2CC(=O)N(c3ccc(Cl)cc3)C2=O)CC1 (stereo not given)
    x | x | 7.4% | -6.6% | 20.8%[0.501 µM] | x

(cont.)
Results follow in this order: LMNA splice mod | ALDH1A1 inh | Sfp inh | miR-21 reporter | G9a block | JMJD2E inh
CC(C)c1nnc(NC(=O)CCS(=O)(=O)Cc2ccccc2)s1
    x | x | u | 3.2% | 28.2µM* | x
O=C(CCS(=O)(=O)c1nc(-c2cccs2)cc(C(F)(F)F)n1)Nc1ccc(OC(F)(F)F)cc1
    x | x | x | u | -4.0%[59 µM] | x
CCOC(=O)Cc1csc(NC(=O)CC)n1
    6.3% | 8.6% | -0.1% | -8.7% | 8.0%[59 µM] | 6.2%
CCOC(=O)Cc1csc(NC(=O)CSc2cc(Cl)ccc2Cl)n1
    5.7% | -8.7% | -13.6% | -5.3% | 22.4µM* | 4.9%
CC(C)c1nnc(NC(=O)CCS(=O)(=O)c2nc(-c3cccs3)cc(C(F)(F)F)n2)s1
    u | u | -20.0% | u | 1.78µM* | u
CCOC(=O)Cc1csc(NC(=O)CCS(=O)(=O)Cc2ccccc2)n1
    -27.1% | 20µM* | 14.8% | -1.4% | -44.4%[59 µM] | 1.4%
CCOC(=O)Cc1csc(NC(=O)CCSc2ccccc2)n1
    0.8%[46 µM] | u | 11.6% | -5.6% | 50.1µM* | -8.4%
Cc1cc(=S)cc(C)n1CCO
    u | u | -14.2% | -13.7% | 12.6µM* | -4.0%
COc1ccc(-c2csc3ncnc(Nc4ccc(OC)c(OC)c4)c23)cc1
    -26.6%[46 µM] | x | x | 19.7% | 5.4%[59 µM] | x
Cc1ccc(S(=O)(=O)N2CCOCC2)cc1NC(=O)CNCC1CCCCC1
    15.4%[46 µM] | u | -9.9% | -0.4% | 10µM* | u

Next part:
Results follow in this order: LMNA splice mod | ALDH1A1 inh | Sfp inh | miR-21 reporter | G9a block | JMJD2E inh
Cc1ccc(S(=O)(=O)N2CCCCC2)cc1NC(=O)CSCC(=O)O
    16.0%[46 µM] | -7.2% | 14.1% | -6.3% | 50.1µM* | 2.4%
CC(C)Oc1ccc(S(=O)(=O)N2CCOCC2)cc1NC(=O)CC1CCCC1
    x | x | x | x | -7.3%[59 µM] | x
O=C(O)C/C=C(\NC(=O)OCc1ccccc1)C(=O)OCc1ccccc1
    -2.6%[9.22 µM] | 0.282µM* | 79.4µM* | -1.2% | 50.1µM* | -7.2%
CC(=O)N/C(=C\c1ccccc1)C(=O)OCc1ccccc1
    x | x | -2.8% | -1.6% | x | x
COc1ccc(C(=S)N2CCCCCC2)cc1
    -7.0% | u | -1.1% | -14.0% | 6.31µM* | -4.8%
CCOC(=O)c1ccc(C(=S)N2CCCC2)cc1
    x | x | 39.8µM* | -4.8% | 10µM* | x
N#Cc1ccc(C(=O)OCC(=O)N2CCCC2)cc1
    x | x | 6.5% | 3.3% | 44.7µM* | x
S=C(c1ccc(Cl)cc1)N1CCN(Cc2ccccc2)CC1
    x | -18.3% | -17.9% | 3.8% | -18.4%[59 µM] | u
